## CycPeptMPDB entries from one study

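The data file gives no further conditions (lipid, pH, time, direction or concentration), and values from different papers need not be comparable. The list need not hold all peptides of the study. Peptides that the database sets to -10, its floor, are left out.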

PAMPA is the parallel artificial membrane permeability assay, which has no cells and reads passive diffusion.
Values are log10 P with P in cm/s, so -5 is more permeable than -7.

CC(=O)N1CCC[C@@H]1C(=O)N(C)[C@H](CC(C)C)C(=O)N[C@@H]1C(=O)N(C)[C@@H](CC(C)C)C(=O)N(C)[C@H](CC(C)C)C(=O)N(C)[C@H](CC(C)C)C(=O)N(C)[C@H](C)C(=O)N[C@@H](CC(C)C)C(=O)N2CCC[C@H]2C(=O)O[C@@H]1C is reported with PAMPA -6.45 (log10 cm/s). For CC(=O)N1CCC[C@H]1C(=O)N[C@@H]1C(=O)N[C@H](CC(C)C)C(=O)N[C@H](CC(C)C)C(=O)N[C@@H](CC(C)C)C(=O)N[C@H](CC(C)C)C(=O)N[C@H](C)C(=O)N[C@@H](CC(C)C)C(=O)N2CCC[C@@H]2C(=O)O[C@@H]1C the data give PAMPA -6.51 (log10 cm/s). Listed for CC(=O)N1CCC[C@H]1C(=O)N(C)[C@H](CC(C)C)C(=O)N[C@@H]1C(=O)N(C)[C@H](CC(C)C)C(=O)N(C)[C@@H](CC(C)C)C(=O)N(C)[C@H](CC(C)C)C(=O)N[C@H](C)C(=O)N[C@H](CC(C)C)C(=O)N2CCC[C@H]2C(=O)O[C@@H]1C: PAMPA -5.28 (log10 cm/s). CC(=O)N1CCC[C@@H]1C(=O)N(C)[C@H](CC(C)C)C(=O)N[C@@H]1C(=O)N[C@H](CC(C)C)C(=O)N(C)[C@H](CC(C)C)C(=O)N[C@H](CC(C)C)C(=O)N[C@@H](C)C(=O)N[C@@H](CC(C)C)C(=O)N2CCC[C@@H]2C(=O)O[C@@H]1C is reported with PAMPA -5.92 (log10 cm/s). Listed for CC(=O)N1CCC[C@H]1C(=O)N(C)[C@H](CC(C)C)C(=O)N[C@@H]1C(=O)N(C)[C@@H](CC(C)C)C(=O)N[C@@H](CC(C)C)C(=O)N(C)[C@H](CC(C)C)C(=O)N(C)[C@@H](C)C(=O)N[C@H](CC(C)C)C(=O)N2CCC[C@@H]2C(=O)O[C@@H]1C: PAMPA -5.13 (log10 cm/s).

CC(=O)N1CCC[C@H]1C(=O)N[C@@H]1C(=O)N[C@H](CC(C)C)C(=O)N(C)[C@H](CC(C)C)C(=O)N(C)[C@H](CC(C)C)C(=O)N(C)[C@@H](CC(C)C)C(=O)N(C)[C@H](C)C(=O)N[C@@H](CC(C)C)C(=O)N2CCC[C@@H]2C(=O)O[C@@H]1C is reported with PAMPA -5.23 (log10 cm/s). CC(=O)N[C@@H]1C(=O)N2CCC[C@H]2C(=O)N(C)[C@H](CC(C)C)C(=O)N(C)[C@@H](CC(C)C)C(=O)N(C)[C@H](CC(C)C)C(=O)N(C)[C@@H](CC(C)C)C(=O)N(C)[C@@H](C)C(=O)N[C@@H](CC(C)C)C(=O)N2CCC[C@@H]2C(=O)O[C@@H]1C has PAMPA -5.54 (log10 cm/s). Listed for CC(=O)N1CCC[C@@H]1C(=O)N(C)[C@H](CC(C)C)C(=O)N[C@@H]1C(=O)N[C@H](CC(C)C)C(=O)N[C@H](CC(C)C)C(=O)N[C@H](CC(C)C)C(=O)N(C)[C@H](C)C(=O)N[C@@H](CC(C)C)C(=O)N2CCC[C@@H]2C(=O)O[C@@H]1C: PAMPA -6.12 (log10 cm/s). CC(=O)N1CCC[C@H]1C(=O)N(C)[C@@H](CC(C)C)C(=O)N[C@@H]1C(=O)N[C@@H](CC(C)C)C(=O)N(C)[C@H](CC(C)C)C(=O)N(C)[C@@H](CC(C)C)C(=O)N(C)[C@H](C)C(=O)N[C@H](CC(C)C)C(=O)N2CCC[C@H]2C(=O)O[C@@H]1C is reported with PAMPA -5.82 (log10 cm/s). CC(=O)N1CCC[C@H]1C(=O)N(C)[C@@H](CC(C)C)C(=O)N[C@@H]1C(=O)N(C)[C@@H](CC(C)C)C(=O)N[C@H](CC(C)C)C(=O)N[C@@H](CC(C)C)C(=O)N(C)[C@@H](C)C(=O)N[C@H](CC(C)C)C(=O)N2CCC[C@@H]2C(=O)O[C@@H]1C is reported with PAMPA -6.01 (log10 cm/s).

For CC(=O)N1CCC[C@H]1C(=O)N(C)[C@@H](CC(C)C)C(=O)N[C@@H]1C(=O)N[C@@H](CC(C)C)C(=O)N[C@H](CC(C)C)C(=O)N(C)[C@@H](CC(C)C)C(=O)N(C)[C@@H](C)C(=O)N[C@@H](CC(C)C)C(=O)N2CCC[C@H]2C(=O)O[C@@H]1C the data give PAMPA -6.44 (log10 cm/s). Listed for CC(=O)N1CCC[C@@H]1C(=O)N(C)[C@H](CC(C)C)C(=O)N[C@@H]1C(=O)N(C)[C@@H](CC(C)C)C(=O)N(C)[C@@H](CC(C)C)C(=O)N(C)[C@H](CC(C)C)C(=O)N(C)[C@H](C)C(=O)N[C@H](CC(C)C)C(=O)N2CCC[C@@H]2C(=O)O[C@@H]1C: PAMPA -5.17 (log10 cm/s). For CC(=O)N1CCC[C@H]1C(=O)N(C)[C@H](CC(C)C)C(=O)N[C@@H]1C(=O)N[C@@H](CC(C)C)C(=O)N(C)[C@H](CC(C)C)C(=O)N[C@H](CC(C)C)C(=O)N[C@H](C)C(=O)N[C@H](CC(C)C)C(=O)N2CCC[C@@H]2C(=O)O[C@@H]1C the data give PAMPA -6.68 (log10 cm/s). CC(=O)N1CCC[C@H]1C(=O)N[C@@H]1C(=O)N[C@H](CC(C)C)C(=O)N[C@H](CC(C)C)C(=O)N[C@@H](CC(C)C)C(=O)N[C@H](CC(C)C)C(=O)N(C)[C@H](C)C(=O)N[C@@H](CC(C)C)C(=O)N2CCC[C@@H]2C(=O)O[C@@H]1C is reported with PAMPA -5.63 (log10 cm/s). Listed for CC(=O)N1CCC[C@@H]1C(=O)N(C)[C@H](CC(C)C)C(=O)N[C@@H]1C(=O)N[C@H](CC(C)C)C(=O)N[C@H](CC(C)C)C(=O)N(C)[C@H](CC(C)C)C(=O)N(C)[C@@H](C)C(=O)N[C@@H](CC(C)C)C(=O)N2CCC[C@H]2C(=O)O[C@@H]1C: PAMPA -6.05 (log10 cm/s).

For CC(=O)N1CCC[C@H]1C(=O)N[C@@H]1C(=O)N(C)[C@H](CC(C)C)C(=O)N(C)[C@@H](CC(C)C)C(=O)N(C)[C@@H](CC(C)C)C(=O)N(C)[C@@H](CC(C)C)C(=O)N(C)[C@@H](C)C(=O)N[C@@H](CC(C)C)C(=O)N2CCC[C@@H]2C(=O)O[C@@H]1C the data give PAMPA -5.07 (log10 cm/s).

The last 3 entries again:

| SMILES | PAMPA (log10 cm/s) |
|---|---|
| CC(=O)N1CCC[C@H]1C(=O)N[C@@H]1C(=O)N[C@H](CC(C)C)C(=O)N[C@H](CC(C)C)C(=O)N[C@@H](CC(C)C)C(=O)N[C@H](CC(C)C)C(=O)N(C)[C@H](C)C(=O)N[C@@H](CC(C)C)C(=O)N2CCC[C@@H]2C(=O)O[C@@H]1C | -5.63 |
| CC(=O)N1CCC[C@@H]1C(=O)N(C)[C@H](CC(C)C)C(=O)N[C@@H]1C(=O)N[C@H](CC(C)C)C(=O)N[C@H](CC(C)C)C(=O)N(C)[C@H](CC(C)C)C(=O)N(C)[C@@H](C)C(=O)N[C@@H](CC(C)C)C(=O)N2CCC[C@H]2C(=O)O[C@@H]1C | -6.05 |
| CC(=O)N1CCC[C@H]1C(=O)N[C@@H]1C(=O)N(C)[C@H](CC(C)C)C(=O)N(C)[C@@H](CC(C)C)C(=O)N(C)[C@@H](CC(C)C)C(=O)N(C)[C@@H](CC(C)C)C(=O)N(C)[C@@H](C)C(=O)N[C@@H](CC(C)C)C(=O)N2CCC[C@@H]2C(=O)O[C@@H]1C | -5.07 |

Collected by the curators of CycPeptMPDB (Li et al. 2023) from Kelly et al. 2021, doi:10.1021/jacs.0c06115.